This is an account of results in patent US20030144205A1.

The target of the assay is mouse RFPL4, full-length (amino acid residues 1-287) (mouse) (UniProt Q8VH31). Description: yeast two-hybrid mating screen of the ovary cDNA library with pGBKT7-RFPL4 as bait.

For the substance “Lysosomal-associated protein 4 (LAPTM4A) (from UniProt Q60961 1-233)”, the # of clones is 1 clones.
